# Experimental data as given in ChEMBL document CHEMBL5038586, “Thiazolidinedione "Magic Bullets" Simultaneously Targeting PPARγ and HDACs: Design, Synthesis, and Investigations of their In Vitro and In Vivo Antitumor Effects” (J Med Chem, 2021).
# Protein sequences, listed by entry. Tags and fused reporters are not part of them. Lines headed by an entry give the natural chain unless they say otherwise; changes in a name come on top.
# UniProt P56524: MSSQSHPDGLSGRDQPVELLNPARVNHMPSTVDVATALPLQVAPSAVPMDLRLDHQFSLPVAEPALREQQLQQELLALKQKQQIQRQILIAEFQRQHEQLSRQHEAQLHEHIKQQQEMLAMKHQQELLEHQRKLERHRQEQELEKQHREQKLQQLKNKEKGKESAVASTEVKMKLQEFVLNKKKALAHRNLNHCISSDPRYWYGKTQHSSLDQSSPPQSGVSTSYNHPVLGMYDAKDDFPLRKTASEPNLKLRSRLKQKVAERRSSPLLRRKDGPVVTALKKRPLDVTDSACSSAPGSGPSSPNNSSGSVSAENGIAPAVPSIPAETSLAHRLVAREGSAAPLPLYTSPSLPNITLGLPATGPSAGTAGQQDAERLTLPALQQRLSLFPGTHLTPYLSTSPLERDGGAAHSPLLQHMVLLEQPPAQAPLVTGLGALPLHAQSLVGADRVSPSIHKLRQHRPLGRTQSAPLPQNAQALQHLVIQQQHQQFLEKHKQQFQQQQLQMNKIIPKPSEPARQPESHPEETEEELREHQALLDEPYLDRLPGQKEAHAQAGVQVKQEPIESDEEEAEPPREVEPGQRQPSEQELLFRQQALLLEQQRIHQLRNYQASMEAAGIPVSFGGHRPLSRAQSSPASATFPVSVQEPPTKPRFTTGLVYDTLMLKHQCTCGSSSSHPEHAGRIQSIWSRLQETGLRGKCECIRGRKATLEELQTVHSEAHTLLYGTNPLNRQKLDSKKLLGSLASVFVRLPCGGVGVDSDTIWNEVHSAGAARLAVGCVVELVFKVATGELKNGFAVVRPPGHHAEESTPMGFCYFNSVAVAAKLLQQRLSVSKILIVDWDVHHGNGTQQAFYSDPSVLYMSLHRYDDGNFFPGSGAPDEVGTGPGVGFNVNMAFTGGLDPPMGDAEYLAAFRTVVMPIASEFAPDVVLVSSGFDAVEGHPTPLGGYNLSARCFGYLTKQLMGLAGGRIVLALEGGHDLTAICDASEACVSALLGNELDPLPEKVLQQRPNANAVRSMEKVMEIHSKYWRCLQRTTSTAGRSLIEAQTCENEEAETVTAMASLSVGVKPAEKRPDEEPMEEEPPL
# pIC50: −log10 of the molar value. Activity calls are given as the source filed them. The calls are words filed in the database; no cut-off is given here.
# Experiments:
# [1] = target: T1, Histone deacetylase 8 (Homo sapiens) (UniProt Q9BY41); assay: Inhibition of recombinant human HDAC8 using Boc-Lys (trifluoroacetyl)-AMC as substrate ay 35 uM preincubated for 1 hr followed by substrate addition and measured after 1 hr by micro plate reader analysis
# T1 sequence (whole entry): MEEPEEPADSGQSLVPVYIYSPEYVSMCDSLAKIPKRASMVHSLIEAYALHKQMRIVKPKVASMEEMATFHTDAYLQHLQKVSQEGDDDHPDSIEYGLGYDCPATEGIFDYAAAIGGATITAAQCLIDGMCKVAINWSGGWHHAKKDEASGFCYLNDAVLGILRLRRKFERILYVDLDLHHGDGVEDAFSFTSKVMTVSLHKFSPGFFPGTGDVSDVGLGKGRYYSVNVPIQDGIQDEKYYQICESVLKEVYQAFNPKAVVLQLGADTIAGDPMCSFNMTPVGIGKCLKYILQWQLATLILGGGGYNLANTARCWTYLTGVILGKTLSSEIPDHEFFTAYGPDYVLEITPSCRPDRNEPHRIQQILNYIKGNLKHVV
# Histone deacetylase 4 [2] = target: T2, Histone deacetylase 4 (Homo sapiens, UniProt P56524); assay: Inhibition of recombinant human HDAC4 using Boc-Lys (trifluoroacetyl)-AMC as substrate ay 35 uM preincubated for 1 hr followed by substrate addition and measured after 1 hr by micro plate reader analysis
# Histone deacetylase 4 [3] = target: T2, Histone deacetylase 4; assay: Inhibition of recombinant human HDAC4 using Boc-Lys (trifluoroacetyl)-AMC as substrate preincubated for 1 hr followed by substrate addition and measured after 1 hr by micro plate reader analysis
inhibition [1],inhibition (Histone deacetylase 4 [2]),Structure (SMILES),pIC50 (Histone deacetylase 4 [3])
Active,Active,O=C(COc1ccc2cc(/C=C3/SC(=O)NC3=O)ccc2c1)Nc1ccc(Br)cc1,
Active,Active,O=C(COc1ccc2cc(/C=C3/SC(=O)NC3=O)ccc2c1)Nc1ccc(Br)cc1F,
,,COc1ccc(Cn2ccc3ccc(C(=O)NO)cc32)cc1,5.00
Active,Active,Cc1cc(Br)ccc1NC(=O)COc1ccc2cc(/C=C3/SC(=O)NC3=O)ccc2c1,
Active,Active,Cc1ccc(NC(=O)COc2ccc3cc(/C=C4/SC(=O)NC4=O)ccc3c2)cc1,

Structure (SMILES),inhibition [1],inhibition (Histone deacetylase 4 [2]),pIC50 (Histone deacetylase 4 [3])
O=C(COc1ccc2cc(/C=C3/SC(=O)NC3=O)ccc2c1)Nc1c(F)cc(F)cc1Br,Active,Active,
O=C(COc1ccc2cc(/C=C3/SC(=O)NC3=O)ccc2c1)Nc1ccc([N+](=O)[O-])cc1,Active,Active,
